# Measurements taken from patent US9975879B2, “Beta lactams as modulators of glutamate uptake and methods for use thereof” (Temple University of the Commonwealth System of Higher …, priority 2013, dated 2018).
# Tested on: GLT-1
# Details: 50 mg/kg daily IP, last 6 days of extinction training; cocaine self-administering rats; nucleus accumbens core, normalized to calnexin; FIG. 1
smiles,measurement,value
C[C@@H](O)[C@H]1C(=O)N[C@@H]1[C@@H](C)C(=O)N1CCN(C)CC1 [MC-100093],GLT-1 expression,increased GLT-1 expression relative to the Coc-Veh group
